CycPeptMPDB entries from one study

Values of Townsend et al. 2020, doi:10.26434/chemrxiv.13335941.v1, as listed in CycPeptMPDB.

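Lipid, pH, incubation time, direction and concentration are not recorded in the data file. Other peptides of the study may be missing here. Peptides that the database sets to -10, its floor, are left out.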

PAMPA is the parallel artificial membrane permeability assay, which has no cells and reads passive diffusion.
Permeability is given as log10 of P in cm/s; higher (less negative) is more permeable.

The entry for CC(C)C[C@@H]1NC(=O)[C@H](C)N(C)C(=O)[C@H](Cc2ccccc2)NC(=O)[C@@H](CC(C)C)NC(=O)[C@@H]2CCCN2C(=O)[C@@H](CC(C)C)NC1=O lists PAMPA -5.61 (log10 cm/s).
The entry for CC(C)C[C@@H]1C(=O)N[C@H](CC(C)C)C(=O)N2CCC[C@@H]2C(=O)N(C)[C@H](CC(C)C)C(=O)N[C@@H](Cc2ccccc2)C(=O)N2CCC[C@H]2C(=O)N[C@@H](Cc2ccccc2)CC(=O)N1C lists PAMPA -5.32 (log10 cm/s).
The entry for CC(C)C[C@@H]1NC(=O)CN(Cc2ccccc2)C(=O)[C@@H](C)N(C)C(=O)[C@H]2CCCN2C(=O)[C@H](Cc2ccccc2)NC(=O)[C@@H](CC(C)C)N(C)C(=O)[C@H]2CCCN2C1=O lists PAMPA -5.69 (log10 cm/s).
The entry for CC(C)C[C@@H]1C(=O)N2CCC[C@H]2C(=O)N(C)[C@H](CC(C)C)C(=O)N[C@@H](Cc2ccccc2)C(=O)N2CCC[C@@H]2C(=O)N(C)[C@H](C)C(=O)N(Cc2ccccc2)CC(=O)N1C lists PAMPA -5.75 (log10 cm/s).
The entry for CC(C)C[C@@H]1C(=O)N(C)[C@@H](CC(C)C)C(=O)N2CCC[C@@H]2C(=O)N(C)[C@@H](CC(C)C)C(=O)N[C@@H](Cc2ccccc2)C(=O)N[C@@H](C)C(=O)N1C lists PAMPA -5.00 (log10 cm/s).
The entry for CC(C)C[C@@H]1NC(=O)[C@@H]2CCCN2C(=O)CN(Cc2ccccc2)C(=O)[C@@H](CC(C)C)N(C)C(=O)[C@H](C)NC(=O)[C@H]2CCCN2C(=O)[C@H](Cc2ccccc2)NC1=O lists PAMPA -5.79 (log10 cm/s).
The entry for CC(C)C[C@@H]1NC(=O)[C@H](C)N(C)C(=O)[C@@H]2CCCN2C(=O)[C@H](Cc2ccccc2)NC(=O)[C@@H](CC(C)C)NC(=O)[C@@H]2CCCN2C(=O)[C@@H](CC(C)C)N(C)C1=O lists PAMPA -5.96 (log10 cm/s).
The entry for CC(C)C[C@@H]1NC(=O)[C@@H](C)NC(=O)[C@H]2CCCN2C(=O)[C@H](Cc2ccccc2)NC(=O)CN(Cc2ccccc2)C(=O)[C@H]2CCCN2C(=O)[C@@H](CC(C)C)NC1=O lists PAMPA -6.72 (log10 cm/s).
The entry for CC(C)C[C@@H]1NC(=O)[C@H](C)N(C)C(=O)[C@H]2CCCN2C(=O)[C@H](Cc2ccccc2)NC(=O)[C@@H](CC(C)C)NC(=O)[C@@H]2CCCN2C(=O)C[C@H](Cc2ccccc2)NC1=O lists PAMPA -6.25 (log10 cm/s).
The entry for CC(C)C[C@H]1NC(=O)[C@H]2CCCN2C(=O)CN(Cc2ccccc2)C(=O)[C@@H](CC(C)C)NC(=O)[C@@H](C)NC(=O)[C@@H]2CCCN2C(=O)[C@H](Cc2ccccc2)NC1=O lists PAMPA -6.98 (log10 cm/s).
The entry for CC(C)C[C@H]1NC(=O)[C@H](C)NC(=O)[C@H]2CCCN2C(=O)[C@H](Cc2ccccc2)NC(=O)[C@@H](CC(C)C)NC(=O)[C@H]2CCCN2C(=O)[C@@H](CC(C)C)NC1=O lists PAMPA -6.76 (log10 cm/s).
The entry for CC(C)C[C@H]1NC(=O)[C@H](C)NC(=O)[C@@H]2CCCN2C(=O)[C@H](Cc2ccccc2)NC(=O)CN(Cc2ccccc2)C(=O)[C@H]2CCCN2C(=O)[C@H](CC(C)C)N(C)C1=O lists PAMPA -5.88 (log10 cm/s).
The entry for CC(C)C[C@@H]1NC(=O)C[C@H](Cc2ccccc2)NC(=O)[C@@H]2CCCN2C(=O)[C@H](Cc2ccccc2)NC(=O)[C@@H](CC(C)C)N(C)C(=O)[C@@H]2CCCN2C(=O)[C@@H](CC(C)C)NC1=O lists PAMPA -5.53 (log10 cm/s).
The entry for CC(C)C[C@@H]1NC(=O)[C@@H](CC(C)C)N(C)C(=O)[C@H](C)N(C)C(=O)[C@H]2CCCN2C(=O)[C@H](Cc2ccccc2)NC(=O)[C@H](CC(C)C)N(C)C(=O)[C@H]2CCCN2C1=O lists PAMPA -4.97 (log10 cm/s).
The entry for CC(C)C[C@@H]1NC(=O)[C@@H](C)N(C)C(=O)[C@@H]2CCCN2C(=O)[C@H](Cc2ccccc2)NC(=O)[C@H](CC(C)C)N(C)C(=O)[C@H]2CCCN2C(=O)CN(Cc2ccccc2)C1=O lists PAMPA -5.70 (log10 cm/s).
The entry for CC(C)C[C@@H]1NC(=O)[C@H](CC(C)C)N(C)C(=O)[C@H](C)NC(=O)[C@@H]2CCCN2C(=O)[C@H](Cc2ccccc2)NC(=O)[C@H](CC(C)C)N(C)C(=O)[C@H]2CCCN2C1=O lists PAMPA -5.28 (log10 cm/s).
The entry for CC(C)C[C@@H]1C(=O)N2CCC[C@H]2C(=O)N(C)[C@H](CC(C)C)C(=O)N[C@@H](Cc2ccccc2)C(=O)N[C@@H](Cc2ccccc2)CC(=O)N[C@H](CC(C)C)C(=O)N1C lists PAMPA -5.13 (log10 cm/s).
The entry for CC(C)C[C@@H]1C(=O)N[C@@H](Cc2ccccc2)C(=O)N2CCC[C@@H]2C(=O)N[C@@H](C)C(=O)N(Cc2ccccc2)CC(=O)N[C@@H](Cc2ccccc2)CC(=O)N2CCC[C@H]2C(=O)N1C lists PAMPA -5.96 (log10 cm/s).
The entry for CC(C)C[C@@H]1NC(=O)[C@H]2CCCN2C(=O)[C@H](CC(C)C)N(C)C(=O)CN(Cc2ccccc2)C(=O)[C@H](C)N(C)C(=O)[C@H]2CCCN2C(=O)[C@H](Cc2ccccc2)NC1=O lists PAMPA -5.27 (log10 cm/s).
The entry for CCCN1CC(=O)N[C@@H](CC(C)C)C(=O)N[C@@H](Cc2ccccc2)CC(=O)N2CCC[C@@H]2C(=O)N(C)[C@@H](CC(C)C)C(=O)N[C@@H](Cc2ccccc2)C(=O)N2CCC[C@H]2C1=O lists PAMPA -5.70 (log10 cm/s).

The last 2 entries again:

{"smiles": "CC(C)C[C@@H]1NC(=O)[C@H]2CCCN2C(=O)[C@H](CC(C)C)N(C)C(=O)CN(Cc2ccccc2)C(=O)[C@H](C)N(C)C(=O)[C@H]2CCCN2C(=O)[C@H](Cc2ccccc2)NC1=O", "PAMPA (log10 cm/s)": "-5.27"}
{"smiles": "CCCN1CC(=O)N[C@@H](CC(C)C)C(=O)N[C@@H](Cc2ccccc2)CC(=O)N2CCC[C@@H]2C(=O)N(C)[C@@H](CC(C)C)C(=O)N[C@@H](Cc2ccccc2)C(=O)N2CCC[C@H]2C1=O", "PAMPA (log10 cm/s)": "-5.70"}